According to patent US10011614B2, “Bis-β-carboline compound and preparation method, pharmaceutical composition and use thereof” (XINJIANG HUASHIDAN PHARMACEUTICAL RESEARCH CO., LTD., priority 2012, dated 2018):

Test system: Kunming mice
Assay: Acute toxicity test in mice (LD50)
Settings: single intraperitoneal administration, observed two weeks, Bliss method

SMILES: c1ccc2c(c1)c1ccncc1n2CCCCCn1c2ccccc2c2ccncc21 [Compound 2, 1,5-bis(β-carboline-9-yl)pentane]
- acute toxicity LD50: 150 mg/kg

SMILES: Cc1nccc2c3ccc(OC(C)C)cc3n(CCCCCCn3c4cc(OC(C)C)ccc4c4ccnc(C)c43)c12 [Compound 25, 1,6-bis(7-isopropoxy-1-methyl-β-carboline-9-yl) hexane]
- acute toxicity LD50: 220 mg/kg

SMILES: c1cncc(-c2nccc3c4ccccc4n(CCCCCCn4c5ccccc5c5ccnc(-c6cccnc6)c54)c23)c1 [Compound 32, 1,6-bis[1-(pyridine-3-yl)-β-carboline-9-yl) hexane]
- acute toxicity LD50: 250 mg/kg
